The results in this text go back to PubChem BioAssay AID493083 (Broad Institute, 2011).

The list shows a part of the results. Results with a measured potency or affinity are listed apart. The source made the active and inactive calls.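 Rule for the calls: active = compounds lowering signal whose fitted AC50 is at most ten times the top tested dose; inconclusive = flat fit with moderate inhibition, or poor curve fit; inactive = the rest.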

The assay in a line: GFP reporter loss versus dox-driven RFP – NIH3T3 R4 cells, cherry-pick, set 3, dose response (AID 493083).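 Note: 0% = neutral control wells and -100% = didemnin B positive control.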 The conditions noted are these: NIH3T3 R4 HSF-1 GFP reporter, heat shock, 48 h; at 19.5 µM (top of the series).
As to `O=C(OC1CN2CCC1CC2)c1cccc(Cl)c1` (stereo unspecified), the activity change, negative = inhibition is inactive: 0.281%.
